{
  "source": "paper PMC9932578",
  "about": "(Clinical Cancer Research, 2022)",
  "data": [
    {"smiles": "CCNC(=O)C[C@@H]1N=C(c2ccc(Cl)cc2)c2cc(OC)ccc2-n2c(C)nnc21", "note": "[molibresib]", "values": [
      {"measurement": "DLT: sialadenitis", "setting": "75 mg QD MDS cohort, n = 1/16", "result": 6, "unit": "%"},
      {"measurement": "DLT: decrease in ejection fraction", "setting": "120 mg QD AML cohort, n = 1/6", "result": 17, "unit": "%"},
      {"measurement": "patients who experienced a DLT", "setting": "all cohorts", "result": 4, "unit": "patients"}
    ]}
  ]
}
